Screening data (PubChem)
Sampled rows, rich in hits. Any-hit rate of the full collection: about 1.3%.
PglD inh = inhibitors of Campylobacter jejuni PglD acetyltransferase; purified PglD enzyme, DTNB colorimetric CoA detection; 360,000 compounds, 0.098% hits; inhibition, % at 12.5 µM; in the data active means inhibition above about 16%, passing the limit was not always enough; inconclusive means no clear call, values can overlap the other calls
F508del corr = CFTR F508del correction in bronchial cells; 350,000 compounds, 0.36% hits; AID 720511; activity (quench increase), % at 7.58 µM; CFBE cells, YFP halide quenching; stimulated with forskolin plus potentiator P3; % fluorescence drop versus neutral controls;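 active means mean added fluorescence quench of at least 8% versus neutral control, with both replicates also reaching 8%; inconclusive means only one of the mean or replicate conditions met; inactive means mean below 8% and not both replicates reaching 8%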;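 further: cells transiently co-express mutant CFTR-F508del with the halide-sensitive YFP; corrector assay measuring rescue of mutant channel to the surface after 24 h compound exposure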
miR-122 sensor = blocks miR-122 activity in Huh7 sensor cells | activation (reporter increase), % at 12.5 µM | 340,000 compounds, 0.3% hits | AID 602342 | Huh7 miR-122 Renilla luciferase sensor, 48 h; neutral wells = 0, positive control = 100;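 active means mean replicate activation score at least 90 and every replicate individually at or above 90; inconclusive means only one of the two criteria met; inactive means neither criterion met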;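 further: higher luciferase means less miR-122 activity so hits act as miR-122 inhibitors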
Yeast UUG start = yeast start codon fidelity modulation | S. cerevisiae UUG-firefly luciferase reporter, luminescence/redox ratio | activity score, % at 18.7 µM | 350,000 tested, 0.13% active;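 active = replicate mean at a twofold rise or more, about +100% in these data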;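 also: firefly luciferase made from a UUG start codon reports start codon fidelity; reporter light over untreated wells divided by growth signal over untreated wells; some hits fall short of that in this replicate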
EWS-Fli block = inhibitors of EWS/Fli oncoprotein transcriptional activity; A673 NR0B1-luciferase reporter, viability-normalised; inhibition, % at 12.6 µM; 350,000 compounds, 0.67% hits;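 active means mean inhibition of at least 50% after viability correction, with every replicate also passing that limit; inconclusive means mean reaches 50% but only one of two replicates passes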;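 further: firefly luciferase signal divided by Alamar Blue viability fluorescence both relative to DMSO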
LGR2 inh = blocks bursicon-induced cAMP signaling via Drosophila LGR2; HEK293 LGR2, CRE-luciferase, bursicon-stimulated, 4 h; inhibition, % at 9.99 µM; 380,000 compounds, 0.35% hits; AID 720647;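 active means drop in luminescence signal, shown as inhibition above about 50% in the replicate tests, limit read from the data, passing the limit was not always enough; inconclusive means probably only some replicates passing the limit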;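 further: agonist challenge used bursicon conditioned medium at about half maximal strength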
Each line names hits and unclear results; the compound was inactive in the other large screens; [ ] = remark or other dose.

Nc1c2c(nc3ccccc13)CCCC2O (configuration not stated)	none
CCCNC(=O)N1[C@H](CO)[C@@H](c2ccc(C3=CCCC3)cc2)[C@@H]1CN(C)C(C)=O	F508del corr 8.1
CCCNC(=O)N1[C@H](CO)[C@@H](c2ccc(C3=CCCC3)cc2)[C@H]1CNC(C)=O	none
CC(=O)N(C)C[C@@H]1[C@@H](c2ccc(-c3cccnc3)cc2)[C@H](CO)N1C(=O)C1CC1	miR-122 sensor 258.3[16.7 µM]
O=C(Cn1c(COc2ccccc2)nc2ccccc21)Nc1cc(Cl)ccc1Cl	none (no result: PglD inh, F508del corr, miR-122 sensor, Yeast UUG start, LGR2 inh)
COCC(=O)N(C)C[C@H]1Oc2ncc(C#Cc3ccccc3OC)cc2C(=O)N([C@H](C)CO)C[C@@H]1C	none
N#C/C(=C\c1ccc([N+](=O)[O-])cc1)c1ccccn1	none (no result: PglD inh, miR-122 sensor, Yeast UUG start)
CN(C)c1ccc(/C=C(\C#N)c2ccccn2)cc1	LGR2 inh 93.5 (no result: F508del corr, EWS-Fli block)
CN(C)c1ccc(NC(=S)c2ccccn2)cc1	EWS-Fli block 86.2, LGR2 inh 98.7
Cc1nn2cc(-c3cccc(Cl)c3)cnc2c1Br	F508del corr 9.5 (no result: PglD inh, miR-122 sensor, Yeast UUG start)
CC1=NN(c2ccc(C)c(C)c2)C(=O)/C1=C\C=C\c1ccc([N+](=O)[O-])o1	EWS-Fli block 66.9 (no result: PglD inh, miR-122 sensor, Yeast UUG start, LGR2 inh)
Cc1ccc(OCC(=O)Nc2ccc(CN3CCCCC3)cc2)c(C)c1	F508del corr 8.3 (no result: PglD inh, miR-122 sensor, Yeast UUG start)
CC(C)(O)C#Cc1ccc([C@H]2[C@H]3CN(C(=O)c4ccc(F)cc4)CCCCN3[C@H]2CO)cc1	none
COc1cc(C2CC(=O)N(c3ccc(C)cc3)C(=O)C2)cc(OC)c1OC	F508del corr 10.2, EWS-Fli block 52.6 (no result: PglD inh, miR-122 sensor, Yeast UUG start)
CC(C)[C@H](NC(=O)c1ccco1)C(=O)N(C)Cc1ccc(C(F)(F)F)cc1	none
CC1(C)CN(O)CCN1O	EWS-Fli block 73.4 (no result: PglD inh, F508del corr, miR-122 sensor, Yeast UUG start)
CC1CC(C)CN(S(=O)(=O)c2ccc(NC(=O)c3ccc(=O)[nH]c3)cc2)C1 (configuration not stated)	miR-122 sensor 102.3, EWS-Fli block 63.7
Cc1ccc(-c2cc(-c3ccccc3)no2)cc1	EWS-Fli block 58.9, LGR2 inh 57.1
c1ccc(-c2cc(-c3ccccc3)on2)cc1	none
Cc1cc(C)c2nc(Cl)c(CN(Cc3ccco3)C(=O)Nc3ccccc3C)cc2c1	F508del corr 10.7, EWS-Fli block 56.2
COc1ccccc1NC(=S)N(Cc1ccco1)Cc1cc2cc(C)cc(C)c2[nH]c1=O	F508del corr 10.4
C[C@@H]1CN([C@@H](C)CO)C(=O)Cc2cc(NS(=O)(=O)c3ccc(Cl)cc3)ccc2O[C@H]1CN(C)C(=O)Nc1ccc(F)cc1	none
CC(C)NC(=O)N1[C@H](C#N)[C@H](c2ccc(-c3ccc(F)cc3)cc2)[C@H]1CO	none (no result: miR-122 sensor, Yeast UUG start)
CC(=O)Nc1ccc(-c2ccnc3c2CC(C(=O)NCc2cccc(Cl)c2)O3)cc1 (configuration not stated)	EWS-Fli block 69.6 (no result: LGR2 inh)
CC(=O)Nc1cccc(-c2ccnc3c2CC(C(=O)NCc2cccnc2)O3)c1 (configuration not stated)	LGR2 inh inconclusive
CC(=O)Nc1cccc(-c2ccnc3c2CC(C(=O)NCc2cccc(Cl)c2)O3)c1 (configuration not stated)	EWS-Fli block 63.1
O=C(CSc1nc2c(c(=O)n1-c1ccc(Cl)cc1)SCC2)N1CCOCC1	none (no result: miR-122 sensor)
CCC(C)(C)NC(=O)C(c1cccn1C)N(C(=O)Cn1nnc2ccccc21)c1ccc(OC)cc1OC (configuration not stated)	miR-122 sensor 91.7 (no result: F508del corr, EWS-Fli block, LGR2 inh)
COc1cc(/C=C2\SC(=O)NC2=O)ccc1Oc1ccc([N+](=O)[O-])cc1[N+](=O)[O-]	none (no result: PglD inh, miR-122 sensor, Yeast UUG start)
C=CCN(CC=C)C(=S)Nc1ccc(OC)c(OC)c1	F508del corr 13.2
CNC(=S)Nc1ccc(OC)c(OC)c1	none (no result: F508del corr, EWS-Fli block, LGR2 inh)
O=C(Nc1ccc(N2CCN(c3ncccc3C(F)(F)F)CC2)nc1)c1cccs1	LGR2 inh 91.6 (no result: PglD inh, miR-122 sensor, Yeast UUG start)
O=C(Nc1ccc(N2CCN(c3ccc(C(F)(F)F)cn3)CC2)nc1)c1cccs1	none (no result: PglD inh, miR-122 sensor, Yeast UUG start, LGR2 inh)
Cc1ccc2[nH]cc(/C=C/c3cc[n+](C)cc3)c2c1	EWS-Fli block 59.9 (no result: miR-122 sensor)
COc1ccc2c(/C=C/c3cc[n+](C)cc3)c[nH]c2c1	none
C[C@H]1CN([C@@H](C)CO)C(=O)Cc2cc(NS(=O)(=O)c3ccc(Cl)cc3)ccc2O[C@@H]1CN(C)C(=O)Nc1ccc(F)cc1	none
